The target in assay [1] is T1, CCR5 receptor (Homo sapiens, UniProt P51681). The assay can be described thus: Aequorin-based calcium flux assay, antagonist mode (against reference agonist MIP-1β). The class given is cell-based. On the set-up: expressed in transfected cells; host or cells: Chinese hamster ovary (CHO) cells coexpressing apoaequorin and Gα16. Here is the method: (§1) Briefly, Chinese hamster ovary cells expressing the CCR5 receptor are transfected to coexpress apoaequorin and Gα16. Cells are incubated with 5 μM Coelenterazine H (Promega) overnight at room temperature, and resuspended at a concentration of 0.1×10^6 cells/ml. Cells are then mixed with test agonist or antagonist compounds and light emission by the aequorin is recorded with a luminometer (FDSS 6000-Hamamatsu) for 30 sec. Results are expressed as Relative Light Units (RLU). Controls include cells not expressing CCR5 in order to exclude possible non-specific effects of the test compound.
An antagonist response is defined as a decrease of light emission by aequorin of 10% or more in a sample of cells expressing CCR5 stimulated by a reference agonist ligand MIP-1β and treated with the compound of the invention, relative to a sample of cells expressing CCR5 but only treated with the reference agonist ligand MIP-1β.
(In general: Calcium flux is commonly read through the fluorescence of an indicator in the cells.)

The chains behind the UniProt entries cited, without tags or fusion partners.
UniProt P51681, whole entry: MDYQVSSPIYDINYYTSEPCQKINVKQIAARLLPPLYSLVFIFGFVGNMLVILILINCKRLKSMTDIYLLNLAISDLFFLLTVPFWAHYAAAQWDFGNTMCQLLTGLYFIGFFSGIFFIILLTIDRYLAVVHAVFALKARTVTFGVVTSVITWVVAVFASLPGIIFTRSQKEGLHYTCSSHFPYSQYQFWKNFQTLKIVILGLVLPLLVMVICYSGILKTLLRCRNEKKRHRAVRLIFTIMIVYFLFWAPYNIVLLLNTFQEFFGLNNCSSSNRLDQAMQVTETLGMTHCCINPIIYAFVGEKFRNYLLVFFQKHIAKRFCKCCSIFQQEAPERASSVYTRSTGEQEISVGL

Assay [2] deals with T1, CCR5 receptor. Put plainly: Aequorin-based calcium flux assay, agonist mode. The class given is cell-based. On the set-up: expressed in transfected cells; host or cells: Chinese hamster ovary (CHO) cells coexpressing apoaequorin and Gα16. Here is the method: as §1
An agonist response is defined as an increase of light emission by aequorin corresponding to 10% or more of the light emitted by a reference sample of cells expressing CCR5 and treated with a the reference agonist ligand MIP-1β.

pIC50: −log10 of the molar value.

As a reminder, the pIC50 is the negative decadic logarithm of the IC50, by convention in mol/L. Turning to `CN(C(=O)Cc1ccc(Cl)cc1)C1CCN(CCC(c2ccccc2)c2ccccc2)CC1` [Compound 61], the pIC50 at CCR5 receptor [1] (Aequorin/Ca++ Antagonist assay IC50) and on CCR5 receptor [1] (IC50 (aequorin antagonist assay)) was 7.46 throughout. Moreover, at CCR5 receptor [2], the “Aequorin/Ca++ Agonist assay EC50” value is “Inactive”.

Values taken from patent US20090054451A1, “Use of Piperidine Derivatives as Agonists of Chemokine Receptor Activity” (Euroscreen S.A., priority 2007, published 2009).
